Measured affinities in a library of Ab-95 light chain variants

The measurements come from Engelhart et al. 2022 (doi:10.1038/s41597-022-01779-4) through the FLAb antibody collection.

Binding partner: SARS-CoV-2 spike HR2 peptide, sequence PDVDLGDISGINAS.

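Phage display of a naive human antibody library on the peptide gave the parent. The library (AAYL52) carries one to three amino acid substitutions per variant, with no insertions or deletions. The assay is AlphaSeq: two haploid yeast populations carry antibody and antigen on their surface. Pairs that bind mate more often; barcode pairs of the diploids are counted by sequencing. Scores were corrected for input abundance and mapped to Kd with protein pairs of known affinity run in the same pool. The assay was run in three technical replicates.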

Ab-95 is the parent antibody, in scFv form: VH, then three GGGGS repeats, then VL. The heavy chain is unchanged in all variants.
VH: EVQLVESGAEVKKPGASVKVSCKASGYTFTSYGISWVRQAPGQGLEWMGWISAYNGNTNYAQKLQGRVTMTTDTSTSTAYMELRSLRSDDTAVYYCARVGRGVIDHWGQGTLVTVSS
VL: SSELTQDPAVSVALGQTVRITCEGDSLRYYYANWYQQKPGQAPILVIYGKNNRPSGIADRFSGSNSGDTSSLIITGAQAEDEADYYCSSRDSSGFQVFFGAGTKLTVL

Variants are written as CDR1, CDR2 and CDR3 of the light chain (limits as in the source). Parent: EGDSLRYYYAN, GKNNRPS, SSRDSSGFQVF. Numbers give log10(Kd / nM), so 0 is 1 nM and 3 is 1 µM. Smaller is tighter. The mean shown is taken over the replicates in which the pair was detected. "no signal" marks a missing value. The strain was present, yet no cells mated with the target were sequenced in any replicate, which points to weak or no binding.

CDR-L1 | CDR-L2 | CDR-L3 | mean log10 Kd (nM) | replicates with signal | empty controls
EGDSLRYYYAN | GKNNRPS | SSRDSFGFQVQ | no signal | 0 of 3 | 0 of 9
EGDSLRYYGAN | GKNNRPS | SSRTSSGFQVF | 2.51 | 3 of 3 | 5 of 9
EGDSSRYYYAN | GKNNRPS | SSRDSSGAQVF | 3.42 | 2 of 3 | 2 of 9
EGDSLDYYYAN | GKNNRPS | SSRDLSGEQVF | 2.93 | 3 of 3 | 6 of 9
EGDSLRYVYQN | GKNNRPS | SSRDSSGFQVF | 2.79 | 3 of 3 | 5 of 9
EFDSLRYYYAM | GKNNRPS | ESRDSSGFQVF | no signal | 0 of 3 | 1 of 9
EVDSARYYYAN | GKNNRPS | SSRDSSQFQVF | 3.96 | 3 of 3 | 2 of 9
EGDNLRYYPAN | AKNNRPS | SSRDSSGFQVF | 2.46 | 3 of 3 | 1 of 9
EGDSLRYYYAN | GKDNRPS | SERDSSGFQVF | 2.85 | 2 of 3 | 5 of 9
ELGSLRYYYAN | GKNDRPS | SSRDSSGFQVF | 3.65 | 3 of 3 | 4 of 9
EGDSLRYYYAN | GKNNRPD | ESRDSSGFQVT | 3.63 | 3 of 3 | 4 of 9
GGDGLRYYYAN | GKNNRPS | SSRDSSGFQVF | 1.95 | 3 of 3 | 3 of 9
EGDSLRYYYAV | GKNNRPS | PSRDSSGFQVF | no signal | 0 of 3 | 2 of 9
EGDSLRYFYAN | GKNERPS | SSRDSTGFQVF | 1.90 | 3 of 3 | 0 of 9
EGDSLRYYYAN | QKFNRPS | SSRDSSGWQVF | 5.23 | 1 of 3 | 2 of 9
EGDSLRYYYAN | GKNNRPV | SSRVSSGFQFF | 3.36 | 2 of 3 | 3 of 9
EGPSLRYYYAN | GKNNRPS | SSRDSCGFQVF | 3.42 | 1 of 3 | 1 of 9
ERDSSRYYYAN | GTNNRPS | SSRDSSGFQVF | 2.78 | 3 of 3 | 0 of 9
EGDSLVYYYAN | GKNNDPS | SSRDFSGFQVF | no signal | 0 of 3 | 5 of 9
EGDSLRYYYAF | GKNNRPS | SSRDQSGFKVF | no signal | 0 of 3 | 0 of 9
EGDSLRYYYAN | AKNNRPS | SSRDSQGSQVF | 2.90 | 2 of 3 | 4 of 9
EGDALMYYYAN | GKNNRPS | SSRDTSGFQVF | 2.98 | 3 of 3 | 2 of 9
EGDSDRYYYAN | GKNWRPS | SSDDSSGFQVF | no signal | 0 of 3 | 2 of 9
EGDSLRYYYAN | GKNNRVS | SSRTSSGFVVF | 4.04 | 2 of 3 | 5 of 9
EGDSLDYYYAN | GKNNQPS | SSRDSSGFQVF | 3.04 | 1 of 3 | 1 of 9
EGDSLRYYYVN | GKNNRPS | WSRMSSGFQVF | 4.17 | 3 of 3 | 2 of 9
EGDSLRYYYAN | GKNGRPS | SSRDSSGPQVF | no signal | 0 of 3 | 5 of 9
EGDSLRYYYAN | EKNNRPS | SSRDTSVFQVF | 2.91 | 1 of 3 | 4 of 9
EGDSLRYYYAN | GKNRRPS | SSRCSSGFQVF | 3.82 | 2 of 3 | 4 of 9
EGDSLRYYYAN | KKNNRES | SSRDSSGLQVF | 4.35 | 1 of 3 | 2 of 9
EGDSLRYYCAN | GKNNRPS | SSRDSSGVQVR | 2.39 | 3 of 3 | 6 of 9
EGDSLRYYFAN | GKNNRAS | SSRDSSDFQVF | 2.67 | 3 of 3 | 3 of 9
EGDSPRYYYAN | GKNGRPS | SSRDSYGFQVF | 3.95 | 3 of 3 | 4 of 9
EGDSLRYYYAN | GKWNRGS | SSRDSSGFQNF | 5.45 | 1 of 3 | 5 of 9
EGDYLRYYYAN | GKNNRPS | SSRDSNQFQVF | 3.75 | 3 of 3 | 4 of 9
EGDGLRYYYAN | GKNNRPS | SFRDSSRFQVF | 2.82 | 3 of 3 | 2 of 9
EGDSLRYYYAN | GKNNKPT | SSRDSNGFQVF | 3.37 | 3 of 3 | 2 of 9
EGDQLRYYYAN | GKNNRPS | SSWDSCGFQVF | no signal | 0 of 3 | 0 of 9
EGDSIRYYYAN | GKNNRPS | CSRDSSGFQVA | no signal | 0 of 3 | 1 of 9
EGDSLRYYYAF | GKNVRPS | SSRDSSGFQWF | no signal | 0 of 3 | 3 of 9
EGDSLRYYYAN | GKNNNPS | SSRDSSGWHVF | 5.87 | 1 of 3 | 2 of 9
ETDSGRYYYAN | GKNNRPS | SSNDSSGFQVF | 3.97 | 2 of 3 | 5 of 9
EGDSLRYYYAN | GKNNRPS | PSRRCSGFQVF | 5.28 | 1 of 3 | 1 of 9
EGDSLRCYYAV | GKNNRPS | SSRDISGFQVF | no signal | 0 of 3 | 1 of 9
EGDSLRYYCAN | GKNNRPS | SVRDSSGFQEF | 2.47 | 3 of 3 | 3 of 9
EGDSLRYYYAN | GKDNRPS | SSRDESGFQVA | 2.87 | 3 of 3 | 3 of 9
EGDSLRYYYAD | GKNNRPS | SSRDNSGFQVF | 3.14 | 1 of 3 | 3 of 9
EGDSLRYYYAN | GKNNRPK | FSRDSSGFIVF | no signal | 0 of 3 | 1 of 9
EGDSLRYYYAN | GNNNRPS | ISRDSSGFQVF | 2.59 | 3 of 3 | 1 of 9
EGDSLRYYYAN | EKDNRPS | SSRDSSGNQVF | 4.07 | 2 of 3 | 4 of 9
EGFSLRYYYAN | GRNNRPS | SSRDSSGFMVF | 3.65 | 3 of 3 | 5 of 9
EGDSLCYYFAN | GKNNRPS | SERDSSGFQVF | 4.55 | 1 of 3 | 5 of 9
EGDSLRYYYAN | GKNNRPS | LSRDSQGFIVF | 3.84 | 2 of 3 | 2 of 9
EGRSLRYYYAN | GKNNVPS | SARDSSGFQVF | 2.55 | 3 of 3 | 4 of 9
EGDSLRYYYAN | GGNNRPS | SSRGSSGDQVF | 1.90 | 3 of 3 | 2 of 9
EGDYLRYYYAN | GKNNRPS | SNVDSSGFQVF | 4.36 | 1 of 3 | 2 of 9
EGDLLRYYYAN | GKNPRPS | SSRDSSGWQVF | 3.85 | 1 of 3 | 4 of 9
CGDSLRYYYAN | GKNNWPS | SQRDSSGFQVF | no signal | 0 of 3 | 1 of 9
EGDSLRYYYAN | GRNNRYS | STRDSSGFQVF | 2.71 | 2 of 3 | 0 of 9
EGDHLRYYYAN | GKNNYPL | SSRDSSGFQVF | 4.73 | 3 of 3 | 1 of 9
ENDSLRYGYAN | GKNNRMS | SSRDSSGFQVF | 2.02 | 3 of 3 | 2 of 9
EGDSLRYYYAN | GKRQRPS | SSRDSSGQQVF | 3.21 | 3 of 3 | 4 of 9
EEYSLRYYYAN | GKNNRPS | RSRDSSGFQVF | 3.83 | 2 of 3 | 2 of 9
AGDSLRYYYAN | GKNNRPC | SSRYSSGFQVF | 3.57 | 3 of 3 | 1 of 9
EGDSLRGYYAN | GKNNRCW | SSRDSSGFQVF | 2.66 | 3 of 3 | 0 of 9

For reference, 10 entries of the list once more:

CDR-L1,CDR-L2,CDR-L3,mean log10 Kd (nM),replicates with signal,empty controls
EGDSLRYYYAD,GKNNRPS,SSRDNSGFQVF,3.14,1 of 3,3 of 9
EGDSLRYYYAN,GKNNRPS,SSRDSFGFQVQ,no signal,0 of 3,0 of 9
EGDSLDYYYAN,GKNNQPS,SSRDSSGFQVF,3.04,1 of 3,1 of 9
EGDSLDYYYAN,GKNNRPS,SSRDLSGEQVF,2.93,3 of 3,6 of 9
AGDSLRYYYAN,GKNNRPC,SSRYSSGFQVF,3.57,3 of 3,1 of 9
EGDSLRYYYAN,EKNNRPS,SSRDTSVFQVF,2.91,1 of 3,4 of 9
EGDSLRYYFAN,GKNNRAS,SSRDSSDFQVF,2.67,3 of 3,3 of 9
ETDSGRYYYAN,GKNNRPS,SSNDSSGFQVF,3.97,2 of 3,5 of 9
EGDSLRYYYAN,GKNNRPS,LSRDSQGFIVF,3.84,2 of 3,2 of 9
EGDQLRYYYAN,GKNNRPS,SSWDSCGFQVF,no signal,0 of 3,0 of 9

Background: pairings of library AAYL52 with three empty control strains gave a value in 28% of cases (median 3.91, 5th percentile 2.90). Values in that range, when seen in few replicates, are hard to tell from nonspecific mating. The control count says in how many pairings with the empty strains this scFv gave a signal.